{"source": "patent US8877706B2", "about": "“Maytansinoid derivatives” (Bio-Thera Solutions, Ltd., Co., priority 2012, dated 2014)", "key": {"A549 cells": {"system": "A549 cells", "test": "Growth inhibition, relative cell proliferation with CCK-8, A549", "assay_type": "cell-based", "settings": "A549 (Her2 negative, Kras mutation), 72 hours", "procedure": "Briefly, cells were detached by using 0.25% (vol/vol) trypsin and suspended in complete medium. Aliquots of cells were plated into 96-well microdilution plates. […] After 72 hours, plates were washed twice with PBS (pH 7.5), and analyzed for relative cell proliferation with CCK-8 reagent.\nAfter 72 hours, plates were washed twice with PBS (pH 7.5), and analyzed for relative cell proliferation with CCK-8 reagent."}, "[1]": {"system": "human NCI-N87 tumor xenografts", "test": "Human NCI-N87 tumor xenografts in BALB/c nude mice", "assay_type": "in vivo, mouse"}, "[2]": {"system": "human BT474 tumor xenografts", "test": "Human BT474 tumor xenografts in BALB/c nude mice", "assay_type": "in vivo, mouse", "procedure": "Human BT474 cells (ATCC, HTB-20) were cultured in DMEM medium supplemented with 10% fetal bovine serum, 2 mM glutamine and antibiotics. Female BALB/c nude mice, 8-9 weeks old, were injected subcutaneously with 1×10^7 tumor cells in the dorsal area in a volume of 100 μL."}}, "note": "“Also recorded” adds a separate entry of the source.", "data": [{"substance": "D-Lmcc-Bat0606", "values": [{"measurement": "inhibition of growth of A549 cells", "setting": "A549 cells", "result": "Neither naked antibody Bat0606 nor drug conjugate D-Lmcc-Bat0606 inhibited the growth; also recorded: did not inhibit A549 cells"}]}, {"substance": "Bat0606: monoclonal antibody (trastuzumab) binding the extracellular domain of Her2", "values": [{"measurement": "inhibition of growth of A549 cells", "setting": "A549 cells", "result": "Neither naked antibody Bat0606 nor drug conjugate Batansine-0606 inhibited the growth; also recorded: Neither naked antibody Bat0606 nor drug conjugate D-Lmcc-Bat0606 inhibited the growth; also recorded: did not inhibit A549 cells"}]}, {"substance": "Batansine-0606: conjugate of partially reduced antibody Bat0606 with batansine (3AA-MDC)", "values": [{"measurement": "tumor shrinkage", "setting": "[1]; 5 or 15 mg/kg i.v. once per week, 5 doses, from day 11", "result": "rapid tumor shrinkage"}, {"measurement": "tumor size, palpability", "setting": "[1]; 5 or 15 mg/kg i.v., from day 32 onwards", "result": "shrunken to non-palpable"}, {"measurement": "tumor growth as assessed by tumor weight", "setting": "[1]; 5 or 15 mg/kg, compared to the unconjugated Bat0606, 35 days after drug treatment", "result": "more significantly inhibited the tumor growth"}, {"measurement": "tumor shrinkage", "setting": "[2]; 15 mg/kg i.v. every 3 weeks, 3 doses, from day 7", "result": "Rapid tumor shrinkage"}, {"measurement": "tumor size, palpability", "setting": "[2]; 15 mg/kg i.v., from day 10 onwards", "result": "shrunken to non-palpable"}, {"measurement": "eradication of tumor in mouse xenografts", "setting": "[2]; FIG. 30", "result": "eradicated human BT474 tumor in mouse xenografts"}, {"measurement": "tumor growth as assessed by tumor weight", "setting": "[2]; compared to the unconjugated Bat0606, 49 days after drug treatment", "result": "more significantly inhibited the tumor growth"}, {"measurement": "inhibition of growth of A549 cells", "setting": "A549 cells", "result": "Neither naked antibody Bat0606 nor drug conjugate Batansine-0606 inhibited the growth"}, {"measurement": "inhibition of growth of A549 cells", "setting": "A549 cells; listed as Batanine-0606", "result": "did not inhibit A549"}]}]}
